Laboratory results published in patent US10196373B2, “Substituted 2-hydroxy-4-(2-(phenylsulfonamido)acetamido)benzoic acid analogs as inhibitors of STAT protein” (University of Central Florida Research Foundation, Inc., priority 2010, dated 2019).

Chains of the proteins cited; added tags and fusions are not shown. Residues count along the entry.
UniProt P42227, 2-770 limits assumed: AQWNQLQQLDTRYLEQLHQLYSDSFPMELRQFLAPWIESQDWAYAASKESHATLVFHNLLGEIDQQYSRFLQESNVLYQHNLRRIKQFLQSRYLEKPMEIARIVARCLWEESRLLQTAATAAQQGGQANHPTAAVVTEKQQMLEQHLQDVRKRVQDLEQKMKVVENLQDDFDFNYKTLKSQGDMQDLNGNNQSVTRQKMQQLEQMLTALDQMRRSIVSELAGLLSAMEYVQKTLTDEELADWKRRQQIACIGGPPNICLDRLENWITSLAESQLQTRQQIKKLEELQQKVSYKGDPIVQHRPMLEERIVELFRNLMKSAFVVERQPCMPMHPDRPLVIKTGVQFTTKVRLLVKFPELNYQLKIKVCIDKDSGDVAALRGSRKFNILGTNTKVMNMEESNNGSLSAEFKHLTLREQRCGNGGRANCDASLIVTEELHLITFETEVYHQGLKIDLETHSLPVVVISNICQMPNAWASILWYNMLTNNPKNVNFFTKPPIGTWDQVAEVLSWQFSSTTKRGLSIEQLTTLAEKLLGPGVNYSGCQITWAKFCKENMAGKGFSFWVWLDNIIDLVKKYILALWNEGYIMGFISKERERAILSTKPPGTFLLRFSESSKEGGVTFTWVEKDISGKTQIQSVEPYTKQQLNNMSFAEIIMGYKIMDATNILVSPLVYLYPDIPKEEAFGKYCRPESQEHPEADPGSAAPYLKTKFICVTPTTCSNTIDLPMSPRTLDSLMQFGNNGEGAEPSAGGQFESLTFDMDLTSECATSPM

Molecular target: STAT3 (Mus musculus, UniProt P42227)
Experiment: Stat3 DNA-binding activity, electrophoretic mobility shift assay (EMSA) with nuclear extracts
Type: biochemical
Details: inhibition of STAT3 activity in an EMSA

IC50 [µM] | SMILES
90.3 ± 4.5 | CN(CC(=O)N(Cc1ccc(C2CCCCC2)cc1)c1ccc(C(=O)O)c(O)c1)S(=O)(=O)c1ccc(Br)cc1 [Compound 45J]
28.8 ± 1.9 | CN(C)c1cccc2c(S(=O)(=O)N(C)CC(=O)N(Cc3ccc(C4CCCCC4)cc3)c3ccc(C(=O)O)c(O)c3)cccc12 [Compound 45G, 4-(N-(4-cyclohexylbenzyl)-2-(5-(dimethylamino)-N-methylnaphthalene-1-sulfonamido)acetamido)-2-hydroxybenzoic acid]
